# Literature values in patent US20070105848A1 (priority 2005, published 2007).
# System: adult humans
# Details: recommended doses, oral or i.v.
smiles,measurement,value
"CN(C)c1ccc2nc3ccc(N(C)C)cc3[s+]c2c1.[Cl-] [Methylene blue, 3,7-bis(dimethylamino)-phenothiazin-5-ium chloride]",side effects,"blue urine, occasional nausea, anemia and fever"
